Values quoted from earlier work as cited in patent publication US5419315A, “Intrapulmonary delivery of hormones” (Aradigm Corporation, priority 1994, dated 1995).

Conditions: nasal delivery

In the case of insulin, the local irritation is listed as “Local irritation has been seen”.
